## Yeast mating assay 1: variants of the scFv Ab-14

The measurements come from Engelhart et al. 2022 (doi:10.1038/s41597-022-01779-4) through the FLAb antibody collection.

Antigen: PDVDLGDISGINAS, a 14-residue peptide of the SARS-CoV-2 spike HR2 region.

Ab-14 is the parent antibody, in scFv form: VH, then the linker GGGGSGGGGSGGGGS, then VL. The heavy chain is unchanged in all variants.
VH: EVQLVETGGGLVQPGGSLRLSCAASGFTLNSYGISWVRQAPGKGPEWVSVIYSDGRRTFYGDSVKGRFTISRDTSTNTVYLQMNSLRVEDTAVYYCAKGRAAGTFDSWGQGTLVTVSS
VL: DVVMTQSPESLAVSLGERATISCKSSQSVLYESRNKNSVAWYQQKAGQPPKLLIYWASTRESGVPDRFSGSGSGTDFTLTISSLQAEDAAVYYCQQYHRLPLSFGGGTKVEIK

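The parent was found by panning a naive human phage display library on the peptide. AAYL50 was designed without a model: most single CDR substitutions and a random sample of double and triple ones. Affinity was read by AlphaSeq, a pooled yeast mating assay with surface-displayed partners. The frequency of each diploid, read from paired DNA barcodes, reflects how well the two displayed proteins bind. Read counts were normalised to the haploid input and turned into Kd by a linear fit to BCL2-family pairs of known affinity, for each replicate. The assay was run in three technical replicates.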

Substitutions are numbered in sequence along the VL above, starting at 1 (not Kabat).
Affinities are written as log10 Kd with Kd in nM; a lower number is a better binder.
Replicates are averaged; those with no signal do not enter the mean.
Where no diploid with the target was found in that replicate, the entry reads "nd": below detection, most likely a poor binder, though not proof of it.

{"changes": "S28G+W56E+Q96F", "log10 Kd (nM) by replicate": "-0.21 / 0.15 / -0.12", "log10 Kd (nM), mean": "-0.06", "control signals": "0/9"}
{"changes": "S33Q+K36E+R99E", "log10 Kd (nM) by replicate": "1.37 / 1.40 / 1.26", "log10 Kd (nM), mean": "1.34", "control signals": "6/9 (4.45)"}
{"changes": "N35W+S38H+S103P", "log10 Kd (nM) by replicate": "nd / 2.65 / nd", "log10 Kd (nM), mean": "2.65", "control signals": "1/9 (3.40)"}
{"changes": "S28G+K36D+Q96H", "log10 Kd (nM) by replicate": "1.02 / 1.11 / 1.44", "log10 Kd (nM), mean": "1.19", "control signals": "3/9 (4.15)"}
{"changes": "K36D+S62N+L100C", "log10 Kd (nM) by replicate": "nd / nd / nd", "log10 Kd (nM), mean": "nd", "control signals": "0/9"}
{"changes": "K36I+A40M+H98D", "log10 Kd (nM) by replicate": "nd / nd / nd", "log10 Kd (nM), mean": "nd", "control signals": "0/9"}
{"changes": "A57K+T59L+R99D", "log10 Kd (nM) by replicate": "nd / 4.38 / nd", "log10 Kd (nM), mean": "4.38", "control signals": "3/9 (3.78)"}
{"changes": "Y31M+E32H+N37C", "log10 Kd (nM) by replicate": "1.64 / 1.70 / 2.00", "log10 Kd (nM), mean": "1.78", "control signals": "6/9 (4.03)"}
{"changes": "S38G+W56E+P101A", "log10 Kd (nM) by replicate": "nd / 2.14 / 2.49", "log10 Kd (nM), mean": "2.32", "control signals": "0/9"}
{"changes": "N35L+K36T+Q95D", "log10 Kd (nM) by replicate": "nd / nd / nd", "log10 Kd (nM), mean": "nd", "control signals": "0/9"}
{"changes": "K36D+N37I+S58V", "log10 Kd (nM) by replicate": "2.27 / 2.94 / 2.52", "log10 Kd (nM), mean": "2.58", "control signals": "1/9 (4.10)"}
{"changes": "A40C+W56N+T59K", "log10 Kd (nM) by replicate": "0.67 / 0.95 / 0.76", "log10 Kd (nM), mean": "0.80", "control signals": "2/9 (5.16)"}
{"changes": "L100R+S103D", "log10 Kd (nM) by replicate": "3.33 / 3.30 / 5.02", "log10 Kd (nM), mean": "3.88", "control signals": "5/9 (3.70)"}
{"changes": "A57K", "log10 Kd (nM) by replicate": "2.02 / 2.07 / 2.74", "log10 Kd (nM), mean": "2.28", "control signals": "1/9 (4.15)"}
{"changes": "L30M+N35E+N37L", "log10 Kd (nM) by replicate": "2.11 / 2.30 / 2.41", "log10 Kd (nM), mean": "2.27", "control signals": "1/9 (4.72)"}
{"changes": "L30W+Y31P+H98A", "log10 Kd (nM) by replicate": "nd / nd / nd", "log10 Kd (nM), mean": "nd", "control signals": "0/9"}
{"changes": "K24R+A57M+S103P", "log10 Kd (nM) by replicate": "nd / nd / nd", "log10 Kd (nM), mean": "nd", "control signals": "1/9 (3.19)"}
{"changes": "A57S+Y97H+R99W", "log10 Kd (nM) by replicate": "4.48 / nd / nd", "log10 Kd (nM), mean": "4.48", "control signals": "2/9 (3.96)"}
{"changes": "S62E+R99N+S103A", "log10 Kd (nM) by replicate": "0.89 / 1.07 / 0.98", "log10 Kd (nM), mean": "0.98", "control signals": "0/9"}
{"changes": "N37H+W56N", "log10 Kd (nM) by replicate": "0.25 / 0.51 / 0.51", "log10 Kd (nM), mean": "0.42", "control signals": "2/9 (5.10)"}
{"changes": "V39W+R99W", "log10 Kd (nM) by replicate": "4.46 / 5.32 / nd", "log10 Kd (nM), mean": "4.89", "control signals": "1/9 (3.96)"}
{"changes": "S28V+R34P+Q95V", "log10 Kd (nM) by replicate": "1.00 / 1.21 / 1.21", "log10 Kd (nM), mean": "1.14", "control signals": "2/9 (4.16)"}
{"changes": "V29G+L30V+R34M", "log10 Kd (nM) by replicate": "nd / 2.68 / nd", "log10 Kd (nM), mean": "2.68", "control signals": "1/9 (2.60)"}
{"changes": "K24F+T59M+R60F", "log10 Kd (nM) by replicate": "nd / nd / nd", "log10 Kd (nM), mean": "nd", "control signals": "4/9 (4.73)"}
{"changes": "Q27P+S62P+S103Y", "log10 Kd (nM) by replicate": "2.07 / 2.04 / 2.43", "log10 Kd (nM), mean": "2.18", "control signals": "8/9 (4.31)"}
{"changes": "N35K+R60P+R99M", "log10 Kd (nM) by replicate": "nd / nd / nd", "log10 Kd (nM), mean": "nd", "control signals": "0/9"}

Empty control strains, which show no peptide, gave a signal in 18% of pairings with library AAYL50; the median was 4.19 and 95% of these signals were weaker than 2.99. No background was subtracted. Also given: how often the same scFv was detected with the empty control strains, with their mean in brackets.
Parent in this assay: reference entry 0.65, copy in this library 1.68.